# Measured values published in paper PMC4871480, “A Miniaturized Screen of a Schistosoma mansoni Serotonergic G Protein-Coupled Receptor Identifies Novel Classes of Parasite-Selective Inhibitors” (PLoS Pathogens, 2016).
# Amino acid sequences for entries named in this document (tags omitted).
# UniProt G4V5G4, entry or part of it: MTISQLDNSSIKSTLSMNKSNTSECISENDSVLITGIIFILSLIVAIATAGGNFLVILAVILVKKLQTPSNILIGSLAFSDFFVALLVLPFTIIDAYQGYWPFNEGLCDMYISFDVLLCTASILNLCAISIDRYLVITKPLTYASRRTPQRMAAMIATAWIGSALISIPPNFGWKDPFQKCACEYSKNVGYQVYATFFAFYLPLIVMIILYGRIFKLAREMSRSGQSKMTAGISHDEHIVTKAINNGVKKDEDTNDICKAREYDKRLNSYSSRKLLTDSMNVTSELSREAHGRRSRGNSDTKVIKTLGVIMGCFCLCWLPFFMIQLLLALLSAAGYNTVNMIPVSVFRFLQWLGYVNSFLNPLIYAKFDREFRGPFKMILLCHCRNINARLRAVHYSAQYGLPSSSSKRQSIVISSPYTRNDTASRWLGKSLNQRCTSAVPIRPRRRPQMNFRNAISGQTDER
# Molecular target: Sm.5HTR (Schistosoma mansoni, UniProt G4V5G4)
# Assay: cell-based
# Experimental: HEK293 cells (ATCC CRL-1573.3) were cultured in DMEM supplemented with 10% fetal bovine serum (FBS), penicillin (100 units/ml), streptomycin (100 μg/ml), and L-glutamine (290 μg/ml). Cells were transiently transfected (ViaFect, Promega) as per the manufacturer’s protocol at a density of 2x10^6 cells per T-25 cell-culture flask. Cells were transfected with plasmids encoding GloSensor (Promega) and either Sm.5HTR (Smp_126730, GenBank accession number KF444051.1) or Sm.5HTRL (KX150867), bothGPCRs being codon optimized for mammalian expression, or Hs.5HT7a (GenBank accession number NM_000872.4, R&D Systems) subcloned into pCS2(-). Cell culture reagents were from Invitrogen. Epitope tagged constructs were used to verify expression, and untagged constructs used for all luminescence assays.
# For assays performed on adherent cells, HEK-293 cells were transferred one day post transfection to 96 well, solid white plates (Corning, cat # 3917) coated with 0.01% poly-L-lysine (Sigma Aldrich) at a density of 5 x 10^4 cells / well in DMEM supplemented with 1% dialyzed FBS (Gibco). […] Plates were allowed to equilibrate at room temperature for two hours prior to performing luminescence assays (GloMax-Multi Detection System plate reader, Promega). […]
compound,measurement,setting,value
"NCCc1c[nH]c2ccc(O)cc12 [5-HT, Serotonin]",EC50,"EC50 (cAMP generation, Sm.5HTR)",~1000 nM
same,EC50,EC50 for cAMP generation,703 ± 90 nM
